# Binding of CDR-mutated scFvs to a peptide of the spike HR2 region

The target is the same throughout: PDVDLGDISGINAS, from the HR2 region of SARS-CoV-2 spike.

Ab-95 is the parent antibody, in scFv form: VH, then a 15-residue (Gly4Ser)3 linker, then VL. The heavy chain is unchanged in all variants.
VH: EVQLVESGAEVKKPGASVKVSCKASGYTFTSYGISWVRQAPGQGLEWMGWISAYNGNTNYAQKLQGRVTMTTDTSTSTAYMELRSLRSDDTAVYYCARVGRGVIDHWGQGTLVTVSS
VL: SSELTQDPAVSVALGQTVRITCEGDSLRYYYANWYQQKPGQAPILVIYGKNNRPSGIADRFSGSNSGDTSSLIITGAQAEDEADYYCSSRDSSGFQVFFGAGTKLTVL

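The parent was found by panning a naive human phage display library on the peptide. The library (AAYL52) carries one to three amino acid substitutions per variant, with no insertions or deletions. The assay is AlphaSeq: two haploid yeast populations carry antibody and antigen on their surface. Mating (16 h, 30 °C) was followed by selection of diploids and sequencing of their barcodes. A regression on co-assayed BCL2-family reference pairs converts the normalised counts of each replicate to an apparent Kd. Each pool was mated in three replicate cultures.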

The parent's light chain CDRs are EGDSLRYYYAN, GKNNRPS, SSRDSSGFQVF; each variant's own CDRs replace them letter for letter.
Scale: log10 of Kd in nM, estimated from mating counts; low values are strong binders.
Averages over replicates are reported, and they cover detected replicates only.
A pair that was not seen in any replicate is written "nd"; this usually means weak binding, but a binder can also be missed.
Entries are sorted by rising average, undetected variants last.

| CDR-L1 | CDR-L2 | CDR-L3 | mean log10 Kd (nM) | detected |
|---|---|---|---|---|
| EGDSLRYYQAN | GKNIRPS | SSRDSGGFQVF | 0.96 | 3/3 |
| EGDSLRYYAAN | GKNNRPS | STRDSSGFQVF | 1.07 | 3/3 |
| NGDSLRYGYAN | GKNNRPS | TSRDSSGFQVF | 1.37 | 3/3 |
| EGESLRYYYAN | GNNLRPS | SSRDSSGFQVF | 1.72 | 3/3 |
| EGDSLRYYYAN | GNNNRPS | SSRDSSGFQVY | 2.10 | 3/3 |
| VGDWLRYYYDN | GKNNRPS | SSRDSSGFQVF | 2.22 | 3/3 |
| EGDSLRYYYAN | GKNNRAT | SSRDSSGFQSF | 2.24 | 3/3 |
| EIDSLRYYDAN | GKNNRPS | SSRDSSGFQVF | 2.27 | 3/3 |
| KGDSLRWYYAN | GKNNRPS | SSRDSSGFQVF | 2.28 | 3/3 |
| EGDSLRQYKAN | GKNNRPS | SSRDSSGFQVG | 2.50 | 3/3 |
| EGDSLRYNYAN | CKNNRPS | SSRDSSGFQVF | 2.51 | 3/3 |
| EGDSLRYYYIN | GKNNRTS | SSRDSSGHQVF | 2.68 | 1/3 |
| SGDSLRYYRAN | GKNNRPC | SSRDSSGFQVF | 2.70 | 3/3 |
| EGDSLKYYYAN | GKNNRGS | SSRDSSGFQRF | 2.75 | 1/3 |
| EGKYLRYYYAN | GKNNRPS | SSRDQSGFQVF | 2.81 | 3/3 |
| EGDSLRYYYAN | GKNNRPS | SSRTSSGWQVF | 2.94 | 3/3 |
| EGDSLRYYVAN | GKNNRPS | SSNDSSGFQVF | 2.99 | 3/3 |
| EYDSLFYYYAN | GKNNRPS | SSRDSSGFQVF | 3.08 | 2/3 |
| EGDSLRYYYAN | GMNNRPS | SYRWSSGFQVF | 3.09 | 3/3 |
| EADFLRYYYAN | GKNNRPS | SSRDSSGFPVF | 3.19 | 2/3 |
| EGDSLRYYYAN | GKNNRPS | SSRDSSMKQVF | 3.24 | 3/3 |
| ERDSLHYYYAN | GKNNRPS | SSRDSSGFQVV | 3.25 | 3/3 |
| WLDSLRYYYAN | GKNNRPS | SSRDSDGFQVF | 3.27 | 3/3 |
| EGDVVRYYYAN | GKNNRPS | SSRDSSGFQVL | 3.30 | 3/3 |
| EGDSLRYYYAN | GKNNCPS | SSRDAKGFQVF | 3.31 | 1/3 |
| EGCSLRYYYAN | GKNNRPS | SSRDWRGFQVF | 3.33 | 3/3 |
| EDDSLSYYYAN | GKKNRPS | SSRDSSGFQVF | 3.47 | 2/3 |
| EGDSLRYYYAN | GHNNFPS | SSHDSSGFQVF | 3.52 | 1/3 |
| EVDSLRYYIAN | GKNNRPS | SSTDSSGFQVF | 3.61 | 3/3 |

Further variants, results first:

| mean log10 Kd (nM) | detected | CDR-L1 | CDR-L2 | CDR-L3 |
|---|---|---|---|---|
| 3.77 | 1/3 | EYDSLRLYYAN | GKNNRPS | SSRDSSGFQMF |
| 3.78 | 3/3 | FADSLRYYYAN | GKNNRPS | SSRDSSGFQVF |
| 3.79 | 2/3 | EGDSLRYYYAN | GKCNRPS | SCRDSSGFQVF |
| 3.79 | 2/3 | EGDSLRYYYAN | GKNNRPN | SSRDSLGFQVT |
| 3.81 | 2/3 | EGDSLRYYYAN | GKTNRPS | SSGDSSGPQVF |
| 3.85 | 3/3 | AGDSLRYYYYN | GKNYRPS | SSRDSSGFQVF |
| 3.91 | 2/3 | EGDSLRYYYAN | GKNNRPM | DSRDSSGFQIF |
| 3.96 | 2/3 | EGDSLRYYYAN | GINPRPL | SSRDSSGFQVF |
| 4.05 | 2/3 | EGDSLLYYYAN | GKSNRPS | SSRDSSDFQVF |
| 4.29 | 3/3 | EGDSLRYYYAF | GKNNRPS | NSRDSSGEQVF |
| 4.32 | 3/3 | EGPFLRYYYAN | GKFNRPS | SSRDSSGFQVF |
| 4.38 | 2/3 | EDDSLRYYYAN | GKPNRPS | SSRDSSGFQVM |
| 4.49 | 3/3 | EQDSLRYYYAN | GKNNRPS | ISRDSCGFQVF |
| 4.52 | 2/3 | EGDSLRYYSAK | RKNNRPS | SSRDSSGFQVF |
| 4.69 | 1/3 | EGDQLRYYTAN | GKNNRPS | SSRRSSGFQVF |
| 4.75 | 2/3 | EWDSLRYYGAN | RKNNRPS | SSRDSSGFQVF |
| 4.86 | 2/3 | EGDSLRYNYAN | GKNNEPS | SSTDSSGFQVF |
| 4.87 | 2/3 | EGDSLQYYYRN | GKNRRPS | SSRDSSGFQVF |
| 5.11 | 1/3 | EGDSLRTYYAN | GKPNRPS | SSYDSSGFQVF |
| 5.29 | 2/3 | EGDSLRYYYAN | GKNNRPH | TSRDSSCFQVF |
| 5.33 | 1/3 | EPDSLRYYYAN | GKNNRPS | SSRDSFGFQVF |
| 5.34 | 2/3 | EGDSERYYYAN | GKNNRPS | SSRDSNGGQVF |
| 5.63 | 1/3 | EGDSWRVYYAN | GKNNRPS | SSRDSSGFQQF |
| nd | 0/3 | EGDSVRYYYAN | GKNNSPS | SSRDSSRFQVF |
| nd | 0/3 | EGWSLRYYYAN | GKNNRPS | SSRDSSGFNRF |
| nd | 0/3 | EGDSLRYYYAN | GKNNRPS | DSRDSGGFKVF |
| nd | 0/3 | EGDSLRYVYRN | GKENRPS | SSRDSSGFQVF |
| nd | 0/3 | EGDALRYYYAN | GKNNRPS | SSRDSSHFTVF |
| nd | 0/3 | EGDSLRYYYAN | GKNNRPS | SNRMSSGFQVF |
| nd | 0/3 | EGDSGRYYYDN | GKNARPS | SSRDSSGFQVF |

The opening 9 entries, copied out:

CDR-L1	CDR-L2	CDR-L3	mean log10 Kd (nM)	detected
EGDSLRYYQAN	GKNIRPS	SSRDSGGFQVF	0.96	3/3
EGDSLRYYAAN	GKNNRPS	STRDSSGFQVF	1.07	3/3
NGDSLRYGYAN	GKNNRPS	TSRDSSGFQVF	1.37	3/3
EGESLRYYYAN	GNNLRPS	SSRDSSGFQVF	1.72	3/3
EGDSLRYYYAN	GNNNRPS	SSRDSSGFQVY	2.10	3/3
VGDWLRYYYDN	GKNNRPS	SSRDSSGFQVF	2.22	3/3
EGDSLRYYYAN	GKNNRAT	SSRDSSGFQSF	2.24	3/3
EIDSLRYYDAN	GKNNRPS	SSRDSSGFQVF	2.27	3/3
KGDSLRWYYAN	GKNNRPS	SSRDSSGFQVF	2.28	3/3

In this assay the parent's reference entry averaged 2.31; its copy inside this library read 2.25.
As a blank, each scFv also met three strains without target: over library AAYL52, 28% of these pairings were detected, typically at 3.91 and seldom below 2.90.

From the AlphaSeq antibody data of Engelhart et al. 2022 (doi:10.1038/s41597-022-01779-4), copy in the FLAb collection.